Results taken from patent US20260234211A1, “POLYPEPTIDE HAVING MODIFIED STRUCTURE AND USE THEREOF” (Guangdong Raynovent Biotech Co., Ltd., priority 2023, published 2026).

Amino acid sequences for entries named in this document (tags omitted). Residues count along the entry.
UniProt P47871, 26-477, species assumed: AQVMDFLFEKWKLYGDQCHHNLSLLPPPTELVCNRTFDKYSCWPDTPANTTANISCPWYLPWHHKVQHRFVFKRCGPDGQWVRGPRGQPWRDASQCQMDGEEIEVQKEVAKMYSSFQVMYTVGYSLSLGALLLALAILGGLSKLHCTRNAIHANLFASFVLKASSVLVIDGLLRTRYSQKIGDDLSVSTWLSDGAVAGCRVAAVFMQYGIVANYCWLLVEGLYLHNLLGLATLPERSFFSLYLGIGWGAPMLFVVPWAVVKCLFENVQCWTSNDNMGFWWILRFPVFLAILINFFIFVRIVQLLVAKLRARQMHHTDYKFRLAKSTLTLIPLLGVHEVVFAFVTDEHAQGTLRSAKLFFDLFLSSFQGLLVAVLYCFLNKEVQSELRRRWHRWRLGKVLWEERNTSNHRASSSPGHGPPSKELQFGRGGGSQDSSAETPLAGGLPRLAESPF

Biological target: T1, GCGR (Homo sapiens, UniProt P47871)
T1 construct: host or cells: HEK293
Assay: In vitro GCGR agonistic activity test (cAMP, HEK293 cell line)
Assay type: cell-based
Experimental: The cell lines were constructed by Pharmaron Inc. See details in the table below.
The test compounds were diluted at a 5-fold dilution factor in 10 points, starting from an initial concentration of 200 nM.
1) The cell lines were cultured respectively in complete medium at 37° C. and 5% CO2.
2) After digestion with TrypLE, the cells were re-suspended in experimental buffer respectively, and inoculated in a CulturPlate-384 cell culture plate at a density of 2000 cells/well and at a volume of 15 μL/well.
1) Eu-cAMP tracer was freeze-thawed and diluted 50 fold with detection buffer; and Ulight-anti-cAMP was freeze-thawed and diluted 150 fold with detection buffer.
2) 5 μL of the test compounds were added respectively into experimental wells of the CulturPlate-384 cell culture plate, which was centrifuged at 200 g for 30 s, and left for stand at 37° C. for 30 min.
3) 10 μL of Eu-cAMP tracer was added and then 10 μL of Uligh-anti-cAMP was added into experimental wells respectively.
4) The reaction plate was centrifuged at 200 g at room temperature for 30 s and left for stand at 25° C. for 1 h.
5) Envision 2105 was used to collect data, with excitation light at 340 nm and emission light at 665 nm and 615 nm.

CC[C@H](C)[C@H](NC(=O)[C@H](Cc1ccccc1)NC(=O)[C@H](C)NC(=O)C(C)(C)NC(=O)[C@H](CCC(N)=O)NC(=O)[C@H](C)NC(=O)[C@@H]1CCCCNC(=O)CN(C(=O)COCCOCCNC(=O)CC[C@H](NC(=O)CCCCCCCCCCCCCCCCCCP(=O)(O)O)C(=O)O)CC(=O)NCCCC[C@H](NC(=O)[C@](C)(CC(C)C)NC(=O)[C@@H](NC(=O)[C@H](CO)NC(=O)[C@H](Cc2ccc(O)cc2)NC(=O)[C@H](CC(=O)O)NC(=O)[C@H](CO)NC(=O)[C@@H](NC(=O)[C@H](Cc2ccccc2)NC(=O)[C@@H](NC(=O)CNC(=O)[C@H](CCC(N)=O)NC(=O)C(C)(C)NC(=O)[C@@H](N)Cc2ccc(O)cc2)[C@@H](C)O)[C@@H](C)O)[C@@H](C)CC)C(=O)N[C@@H](CC(=O)O)C(=O)N[C@@H](CCCCN)C(=O)N1)C(=O)N[C@@H](CCC(=O)O)C(=O)N[C@@H](Cc1ccc(O)cc1)C(=O)N[C@@H](CC(C)C)C(=O)N[C@@H](CC(C)C)C(=O)N[C@@H](CCC(=O)O)C(=O)NCC(=O)NCC(=O)N1CCC[C@H]1C(=O)N[C@@H](CO)C(=O)N[C@@H](CO)C(=O)NCC(=O)N[C@@H](C)C(=O)N1CCC[C@H]1C(=O)N1CCC[C@H]1C(=O)N1CCC[C@H]1C(=O)N[C@@H](CO)C(N)=O [Example 43, YAibQGT FTSDY SIα- MeL^1KD K^1KAQAib AFIEY LLEGG PSSGA PPPS-NH2 (SEQ ID NO: 24)]
EC50: 42 pM
